Assay results taken from US6800101B2, “Deactivatable biocides for hydrocarbonaceous products” (priority 2001, dated 2004).

Test system: bacteria
Assay: Neutralization of biocides with H2O2 and NH4Cl
Format: cell-based
Details: five times molar excess

| Substance | neutralizing biocides (glutaraldehyde) |
| --- | --- |
| H2O2 | not effective |
| NH4Cl | not effective |
